The values below come from patent US9556179B2 (BRISTOL-MYERS SQUIBB COMPANY, priority 2012, dated 2017).

By UniProt entry, the sequences of proteins in these tests, tags left out. Where a name states a change or a piece, a line headed by the entry shows the natural chain unless it says otherwise.
UniProt P49674, whole entry: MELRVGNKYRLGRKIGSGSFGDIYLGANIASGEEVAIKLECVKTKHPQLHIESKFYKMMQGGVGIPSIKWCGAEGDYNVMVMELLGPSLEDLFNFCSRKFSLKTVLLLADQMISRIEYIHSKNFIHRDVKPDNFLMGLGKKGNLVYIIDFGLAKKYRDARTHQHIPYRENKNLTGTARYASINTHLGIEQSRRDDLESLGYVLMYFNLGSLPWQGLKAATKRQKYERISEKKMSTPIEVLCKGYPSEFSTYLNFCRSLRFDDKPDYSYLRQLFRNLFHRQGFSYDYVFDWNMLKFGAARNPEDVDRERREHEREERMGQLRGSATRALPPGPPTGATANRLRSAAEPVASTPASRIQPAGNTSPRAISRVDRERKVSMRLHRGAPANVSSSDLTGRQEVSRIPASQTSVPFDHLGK
UniProt P48730, whole entry: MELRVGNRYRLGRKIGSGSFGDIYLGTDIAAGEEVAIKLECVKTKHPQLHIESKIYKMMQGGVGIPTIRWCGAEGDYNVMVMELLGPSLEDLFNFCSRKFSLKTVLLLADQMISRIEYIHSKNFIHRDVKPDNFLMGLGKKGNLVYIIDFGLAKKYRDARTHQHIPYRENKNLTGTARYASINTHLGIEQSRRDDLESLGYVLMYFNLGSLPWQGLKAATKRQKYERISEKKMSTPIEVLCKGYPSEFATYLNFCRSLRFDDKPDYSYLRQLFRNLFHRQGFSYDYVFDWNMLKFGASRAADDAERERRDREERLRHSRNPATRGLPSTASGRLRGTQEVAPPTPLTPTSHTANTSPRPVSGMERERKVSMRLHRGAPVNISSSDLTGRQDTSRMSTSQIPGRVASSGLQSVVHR

pIC50: −log10 of the molar value.

For one assay, the target named is CK1ε (Homo sapiens (Human), UniProt P49674). The assay is described as follows: CK1ε kinase assay (Caliper LABCHIP electrophoretic separation of fluoresceinated peptide substrate and product). It counts as biochemical. The note with it: read-out: CK1ε (IC50); 200 pM enzyme, 50 μM ATP, 22 hours at room temperature.
Another assay has as its target CK1δ (Homo sapiens (Human), UniProt P48730). The assay is described as follows: CK1δ kinase assay (Caliper LABCHIP electrophoretic separation of fluoresceinated peptide substrate and product). The assay is classed as biochemical. The note with it: read-out: CK1δ (IC50); 200 pM enzyme, 50 μM ATP, 22 hours at room temperature.

What is called pIC50 is the IC50 on a negative log10 scale, so that one unit is a factor of ten. Turning to `Cc1nc(-c2ccncc2)sc1C(=O)Nc1cn2nc(-c3c(-c4ccc(F)cc4)ncn3C3CCN(C)CC3)ccc2n1`, the results for the pIC50 at CK1ε and at CK1δ were 8.91 and 9.07, respectively.
As to `Cc1nc(-c2ccncc2)sc1C(=O)Nc1cn2nc(-c3c(-c4ccc(F)cc4)ncn3C3CCNCC3)ccc2n1`, on CK1ε, the pIC50 was 9.45.
